The chains behind the UniProt entries cited, without tags or fusion partners. Where a name states a change or a piece, a line headed by the entry shows the natural chain unless it says otherwise.
UniProt Q9Y570: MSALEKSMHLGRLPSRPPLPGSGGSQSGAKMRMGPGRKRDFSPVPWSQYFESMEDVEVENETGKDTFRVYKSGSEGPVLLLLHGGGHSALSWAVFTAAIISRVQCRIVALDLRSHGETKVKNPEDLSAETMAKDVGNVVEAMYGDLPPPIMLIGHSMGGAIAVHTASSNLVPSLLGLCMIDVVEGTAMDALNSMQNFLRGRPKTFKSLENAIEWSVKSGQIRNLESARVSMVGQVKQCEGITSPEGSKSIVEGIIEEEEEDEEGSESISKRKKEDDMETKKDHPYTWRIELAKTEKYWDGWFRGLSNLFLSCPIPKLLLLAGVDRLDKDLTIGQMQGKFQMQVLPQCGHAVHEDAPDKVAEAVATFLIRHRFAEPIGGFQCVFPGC

In PubChem BioAssay AID2366 (The Scripps Research Institute Molecular Screening Center, 2010):

Target: Protein phosphatase methylesterase 1 (Homo sapiens) (UniProt Q9Y570)
Experiment: endogenous PME-1 and serine hydrolase inhibition – cell lysate, mouse brain cytosol, FP-rhodamine, gel ABPP, selectivity assay for PME-1 inhibitor project, dose response (AID 2366)

SMILES | IC50
N#C/C(=C\c1cccn1S(=O)(=O)c1ccccc1)S(=O)(=O)c1ccc(F)cc1 | 4.8 µM
CS(=O)(=O)/C(C#N)=C/c1cccn1S(=O)(=O)c1ccc(Cl)cc1 | 3 µM
